Here are results for one compound from PubChem BioAssay AID1240 (Sanford-Burnham Center for Chemical Genomics, 2008).

The chains behind the UniProt entries cited, without tags or fusion partners.
UniProt Q9HD36, whole entry: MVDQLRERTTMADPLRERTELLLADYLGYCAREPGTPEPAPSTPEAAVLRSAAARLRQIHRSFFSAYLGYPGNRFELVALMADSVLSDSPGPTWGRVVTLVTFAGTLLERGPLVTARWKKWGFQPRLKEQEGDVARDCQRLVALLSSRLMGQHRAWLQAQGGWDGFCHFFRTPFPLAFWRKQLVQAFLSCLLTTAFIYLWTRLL
UniProt P22736, whole entry partner: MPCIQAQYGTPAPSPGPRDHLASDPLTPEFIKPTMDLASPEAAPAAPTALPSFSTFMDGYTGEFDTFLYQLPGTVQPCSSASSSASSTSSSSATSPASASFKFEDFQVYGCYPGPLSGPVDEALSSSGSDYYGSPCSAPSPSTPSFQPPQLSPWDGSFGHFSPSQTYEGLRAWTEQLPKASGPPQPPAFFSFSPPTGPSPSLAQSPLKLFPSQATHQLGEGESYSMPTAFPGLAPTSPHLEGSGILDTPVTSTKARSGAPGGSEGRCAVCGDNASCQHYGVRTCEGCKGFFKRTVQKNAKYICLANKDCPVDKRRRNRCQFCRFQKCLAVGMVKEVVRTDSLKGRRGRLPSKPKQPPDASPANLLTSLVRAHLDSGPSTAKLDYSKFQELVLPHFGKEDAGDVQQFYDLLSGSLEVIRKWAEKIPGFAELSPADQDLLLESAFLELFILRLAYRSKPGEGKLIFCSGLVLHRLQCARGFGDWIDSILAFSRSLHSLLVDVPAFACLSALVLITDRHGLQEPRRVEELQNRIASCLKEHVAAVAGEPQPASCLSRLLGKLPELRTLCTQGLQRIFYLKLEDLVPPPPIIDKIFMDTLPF

The list shows a part of the results, in another mix than the full data. Some tests of the compounds listed are not included; inactive here does not mean inactive elsewhere.

For the experiment, the target named is Bcl-2-like protein 10 (Homo sapiens) (UniProt Q9HD36). The experiment is described as follows: Phenotype converters, Bcl-B/TR3 peptide binding displacement, primary biochemical FP (AID 1240).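 Also: 0% = Bcl-B with tracer peptide and DMSO and 100% = tracer peptide lacking Bcl-B.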 The following applies: GST-Bcl-B / FITC-TR3 peptide fluorescence polarization; stronger effect = higher value; compound at 3.75 mg/L.
In the case of `COc1ccc(OC)c(C=C(C#N)C#N)c1`, the displacement turned out to be 3.6%.
